The chains are these.
B1: Tyrosine-protein kinase ABL1 (Mus musculus), P00520-4 (parent)
chain: MGQQPGKVLGDQRRPSLPALHFIKGAGKRDSSRHGGPHCNVFVEHEALQRPVASDFEPQGLSEAARWNSKENLLAGPSENDPNLFVALYDFVASGDNTLSITKGEKLRVLGYNHNGEWCEAQTKNGQGWVPSNYITPVNSLEKHSWYHGPVSRNAAEYLLSSGINGSFLVRESESSPGQRSISLRYEGRVYHYRINTASDGKLYVSSESRFNTLAELVHHHSTVADGLITTLHYPAPKRNKPTIYGVSPNYDKWEMERTDITMKHKLGGGQYGEVYEGVWKKYSLTVAVKTLKEDTMEVEEFLKEAAVMKEIKHPNLVQLLGVCTREPPFYIITEFMTYGNLLDYLRECNRQEVSAVVLLYMATQISSAMEYLEKKNFIHRDLAARNCLVGENHLVKVADFGLSRLMTGDTYTAHAGAKFPIKWTAPESLAYNKFSIKSDVWAFGVLLWEIATYGMSPYPGIDLSQVYELLEKDYRMERPEGCPEKVYELMRACWQWNPSDRPSFAEIHQAFETMFQESSISDEVEKELGKRGTRGGAGSMLQAPELPTKTRTCRRAAEQKDAPDTPELLHTKGLGESDALDSEPAVSPLLPRKERGPPDGSLNEDERLLPRDRKTNLFSALIKKKKKMAPTPPKRSSSFREMDGQPDRRGASEDDSRELCNGPPALTSDAAEPTKSPKASNGAGVPNGAFREPGNSGFRSPHMWKKSSTLTGSRLAAAEEESGMSSSKRFLRSCSASCMPHGARDTEWRSVTLPRDLPSAGKQFDSSTFGGHKSEKPALPRKRTSESRSEQVAKSTAMPPPRLVKKNEEAAEEGFKDTESSPGSSPPSLTPKLLRRQVTASPSSGLSHKEEATKGSASGMGTPATAEPAPPSNKVGLSKASSEEMRVRRHKHSSESPGRDKGRLAKLKPAPPPPPACTGKAGKPAQSPSQEAGEAGGPTKTKCTSLAMDAVNTDPTKAGPPGEGLRKPVPPSVPKPQSTAKPPGTPTSPVSTPSTAPAPSPLAGDQQPSSAAFIPLISTRVSLRKTRQPPERIASGTITKGVVLDSTEALCLAISRNSEQMASHSAVLEAGKNLYTFCVSYVDSIQQMRNKFAFREAINKLESNLRELQICPATASSGPAATQDFSKLLSSVKEISDIVRR

This is an account of results in IntAct's records for PubMed 21320496.

Variants of B1 are the subject of the first assay. The conditions noted are these: with q8izp0-4 ABI1, Q8IZP0-4.
On to K290M, for which the “effect of a mutation on the interaction” value is reported as “disrupting interaction”.

In a further assay the parent is B1. The conditions noted are these: with q8izp0-4 ABI1, Q8IZP0-4. This is another data set of the same source.
Turning to P634A, the “effect of a mutation on the interaction” value is given as “decreasing interaction”. On the same count and under the same terms, to P781A belongs “decreasing interaction”. On to P592A, for which the “effect of a mutation on the interaction” value was “decreasing interaction”. On the same count and under the same terms, to P548A belongs “decreasing interaction”.
